According to patent publication US20240189276A1, “COMPOSITIONS COMPRISING LACTATE DEHYDROGENASE-A INHIBITORS AND METHODS OF PRODUCTION AND USE THEREOF” (Southwestern Oklahoma State University, priority 2022, published 2024):

Legend:
[1] = system: FC1199 pancreatic cancer cells; assay: Cytotoxicity (viability/proliferation/necrosis) assay, FC1199; assay type: cell-based, mouse; conditions: read-out: Cytotoxicity IC50 ± SD, FC-1199; FC-1199, 48 hr
[2] = system: HPNE cell lines; assay: Cytotoxicity assay in hTERT immortalized normal pancreatic cells; assay type: cell-based, human; conditions: read-out: Cytotoxicity IC50 ± SD, HPNE Normal, 48 hr

Structure (SMILES) | IC50 [1] | IC50 [2]
COC(=O)C(CC(=O)Nc1ccc(C(=O)N2CCOCC2)cc1)c1ccc(C(F)(F)F)cc1 (stereo not shown) | > 50 µM | > 50 µM
O=C(CC(C(=O)O)c1ccc(C(F)(F)F)cc1)Nc1ccc(C(=O)N2CCOCC2)cc1 (stereo not shown) | > 50 µM | > 50 µM
